From patent US20110182926A1, “[…]” (priority 2008, published 2011)

What was measured:
HLA-A*0201 [1] = molecular target: T1, HLA-A*0201 (Homo sapiens, UniProt P04439, D140Y/D185E/D98H/E176V/E277Q/G131W/G231S/I119V/I121R/I166T/I218V/L300P/L318F/N151K/N90K/P208A/P217A/Q86G/Q94H/R138H/R169H/T345S); assay: In vitro cellular binding assay of CEA peptides on TAP-deficient T2 cells (FACS); details: 50 μM peptide, 18 hours at 37° C., FIG. 3
Procedure: To determine the binding ability of EI Suite-selected wild type peptides and analogs, an in vitro cellular binding assay was performed using the TAP-deficient cell line T2. T2 cells are HLA-A*0201 positive, MHC class II negative and TAP deficient, meaning that they lack a functional transporter associated with antigen presentation, so that they accumulate empty unstable class I molecules.
T2 cells were incubated with 50 μM peptide in serum-free RPMI 1640 supplemented with 5 μg/mL human β2m (Fluka) for 18 hours at 37° C. HLA-A*0201 expression was then measured by flow cytometry using the anti-HLA-A2.1 monoclonal antibody (mAb) BB7.2 followed by incubation with fluorescein isothiocyanate (FITC)-conjugated F(ab′)2 goat antimouse Ig (Biosource). The results are expressed as fluorescence index (FI) defined as a ratio (median channel of fluorescence) between the sample and a control without any peptide. An increase over the control of at least […] (FI>2) was arbitrarily chosen as the cutoff point.
The binding assay consisted of the exogenous addition of peptides and β2 microglobulin protein: peptide binding up-regulates surface HLA expression and HLA-A2 molecules on the surface are measured using FACS by means of an antibody capable of recognizing the peptide-MHC complex (Kuzushima et al. Blood; 98:1872-81 (2001); Passoni et al. Blood 99:2100-06 (2002)).

HLA-A*0201 [2] = molecular target: T1, HLA-A*0201; assay: HLA-A*0201/peptide complex stability on T2 cells over time (FACS); type: binding; details: 50 μM peptide, 0-8 hours, FIG. 4
Procedure: To assess the HLA-A*0201/peptide complex stability, T2 cells (10^6/mL) were incubated overnight with 50 μM of each peptide in serum-free RPMI 1640 supplemented with 100 ng/mL human β2m at 37° C. Cells were then washed 4 times to remove free peptides, incubated for 1 hour with 10 ng/mL Brefeldin A (Sigma-Aldrich) to block cell surface expression of newly synthesized HLA-A*0201 molecules, washed, and incubated at 37° C. for 0, 2, 4, 6, or 8 hours. Subsequently, cells were stained with anti-HLA-A2.1 mAb BB7.2. For each time point, peptide-induced HLA-A*0201 expression was calculated as mean fluorescence value of peptide incubated T2 cells/mean fluorescence value T2 cells in the absence of the peptide. Dissociation complex 50 (DC50) was defined as the time required for the loss of 50% of the HLA-A*0201/peptide complexes stabilized at t=0.
Binding stability of the peptide-MHC complex was also evaluated over time. The CAP-1 peptide was used as positive control.

What does the source list for “VLYGPDTPIV (Anchor-modified analog) [589V10]”?
binding to HLA-A*0201 compared to wild-type counterpart (HLA-A*0201 [1]): marked increase of binding; stability of peptide-MHC complex compared to wild-type counterpart (HLA-A*0201 [2]): improved stability
